Data as given in patent US4689345A, “Oxygenated alkyl substituted bicyclo alkanes” (CBD Corporation, priority 1986, dated 1987).

Target: T1, progesterone receptor (keloid cytosol) (Homo sapiens, UniProt P06401)
T1 construct: [3H]promegestone (R5020) tracer
T1 sequence (P06401 1-933): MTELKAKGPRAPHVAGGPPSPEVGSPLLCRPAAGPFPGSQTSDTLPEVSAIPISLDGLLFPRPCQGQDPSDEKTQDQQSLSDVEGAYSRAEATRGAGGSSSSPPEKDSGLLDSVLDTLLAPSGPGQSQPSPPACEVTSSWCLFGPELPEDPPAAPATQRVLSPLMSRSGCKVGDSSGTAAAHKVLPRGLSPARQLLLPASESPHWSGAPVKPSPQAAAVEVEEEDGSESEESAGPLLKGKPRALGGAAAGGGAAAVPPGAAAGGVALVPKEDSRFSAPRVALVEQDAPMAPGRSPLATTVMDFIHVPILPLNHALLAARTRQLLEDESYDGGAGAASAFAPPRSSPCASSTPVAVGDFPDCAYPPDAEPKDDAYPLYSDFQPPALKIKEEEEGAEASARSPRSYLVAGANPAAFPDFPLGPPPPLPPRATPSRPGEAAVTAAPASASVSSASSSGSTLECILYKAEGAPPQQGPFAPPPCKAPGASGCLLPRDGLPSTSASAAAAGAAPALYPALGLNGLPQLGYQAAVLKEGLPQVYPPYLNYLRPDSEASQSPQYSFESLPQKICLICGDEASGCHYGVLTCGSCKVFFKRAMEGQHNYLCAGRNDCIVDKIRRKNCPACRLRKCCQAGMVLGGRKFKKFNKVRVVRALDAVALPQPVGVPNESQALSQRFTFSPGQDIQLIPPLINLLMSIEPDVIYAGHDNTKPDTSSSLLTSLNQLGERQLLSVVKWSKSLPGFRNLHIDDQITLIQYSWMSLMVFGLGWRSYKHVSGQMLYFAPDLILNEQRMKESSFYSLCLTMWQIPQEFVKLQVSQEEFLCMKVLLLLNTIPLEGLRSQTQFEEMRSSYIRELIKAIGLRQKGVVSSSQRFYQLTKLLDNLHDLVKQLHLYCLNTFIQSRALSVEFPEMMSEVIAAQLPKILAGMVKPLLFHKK
Test: Keloid cytosol steroid binding assay, progesterone

With `CC(=O)[C@H]1CC[C@H]2[C@@H]3CCC4=CC(=O)CC[C@]4(C)[C@H]3CC[C@]12C` [Progesterone] the “progesterone binding, male patients” value (male patients) was “neither detectable” and the “Binding of Progesterone” value (patient 1) was 7.
